This passage reports EC50 results from US11578069B2, “Compounds for inhibition of α4 β7 integrin” (Gilead Sciences, Inc., priority 2019, dated 2023).

Amino acid sequences for entries named in this document (tags omitted). Residues count along the entry.
UniProt P13612, 34-1032 limits assumed: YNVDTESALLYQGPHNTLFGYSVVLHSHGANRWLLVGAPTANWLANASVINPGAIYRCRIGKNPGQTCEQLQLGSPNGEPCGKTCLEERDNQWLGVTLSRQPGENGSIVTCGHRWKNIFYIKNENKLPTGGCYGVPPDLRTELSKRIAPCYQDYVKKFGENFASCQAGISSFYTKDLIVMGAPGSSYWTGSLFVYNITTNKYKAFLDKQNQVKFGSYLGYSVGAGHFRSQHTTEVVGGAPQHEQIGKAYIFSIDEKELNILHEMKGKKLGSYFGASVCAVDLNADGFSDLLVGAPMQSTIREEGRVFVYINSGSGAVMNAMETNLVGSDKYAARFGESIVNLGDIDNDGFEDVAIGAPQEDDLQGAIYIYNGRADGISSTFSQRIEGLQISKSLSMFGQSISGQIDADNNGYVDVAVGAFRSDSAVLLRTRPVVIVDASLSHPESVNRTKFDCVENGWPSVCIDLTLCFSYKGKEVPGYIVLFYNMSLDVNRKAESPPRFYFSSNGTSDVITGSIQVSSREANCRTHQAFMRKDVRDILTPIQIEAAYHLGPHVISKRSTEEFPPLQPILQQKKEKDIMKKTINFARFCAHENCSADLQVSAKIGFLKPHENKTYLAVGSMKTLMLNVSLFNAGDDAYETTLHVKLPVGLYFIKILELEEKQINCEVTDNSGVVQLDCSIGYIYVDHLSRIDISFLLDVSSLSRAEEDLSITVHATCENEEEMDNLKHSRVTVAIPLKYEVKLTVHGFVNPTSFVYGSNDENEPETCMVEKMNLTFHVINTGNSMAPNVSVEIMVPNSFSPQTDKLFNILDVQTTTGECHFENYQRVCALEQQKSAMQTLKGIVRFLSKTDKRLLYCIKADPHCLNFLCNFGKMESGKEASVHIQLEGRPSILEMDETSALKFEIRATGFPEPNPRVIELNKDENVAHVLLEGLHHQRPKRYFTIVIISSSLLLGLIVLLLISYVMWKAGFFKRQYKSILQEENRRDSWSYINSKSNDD
UniProt P26010, 20-798 limits assumed: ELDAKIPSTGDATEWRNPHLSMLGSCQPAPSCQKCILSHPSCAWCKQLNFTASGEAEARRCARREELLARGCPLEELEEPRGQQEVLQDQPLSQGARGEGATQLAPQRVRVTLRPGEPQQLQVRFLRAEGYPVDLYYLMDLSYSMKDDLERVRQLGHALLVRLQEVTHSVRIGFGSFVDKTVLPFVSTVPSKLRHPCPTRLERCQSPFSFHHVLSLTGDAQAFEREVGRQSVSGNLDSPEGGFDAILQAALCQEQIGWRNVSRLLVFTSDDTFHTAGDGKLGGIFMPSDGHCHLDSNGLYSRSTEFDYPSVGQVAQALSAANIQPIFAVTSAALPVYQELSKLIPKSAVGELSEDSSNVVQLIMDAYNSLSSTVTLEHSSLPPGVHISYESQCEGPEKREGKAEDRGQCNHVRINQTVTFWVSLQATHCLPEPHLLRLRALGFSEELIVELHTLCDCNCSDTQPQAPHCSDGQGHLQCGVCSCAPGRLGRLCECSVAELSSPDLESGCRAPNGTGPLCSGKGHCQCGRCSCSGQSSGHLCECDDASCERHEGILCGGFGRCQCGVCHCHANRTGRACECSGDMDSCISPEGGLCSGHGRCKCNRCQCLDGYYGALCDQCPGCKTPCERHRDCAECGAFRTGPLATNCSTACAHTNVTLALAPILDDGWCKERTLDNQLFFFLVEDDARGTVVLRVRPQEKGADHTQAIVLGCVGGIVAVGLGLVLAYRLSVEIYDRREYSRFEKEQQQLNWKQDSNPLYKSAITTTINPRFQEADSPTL
UniProt P05556, 21-798 limits assumed: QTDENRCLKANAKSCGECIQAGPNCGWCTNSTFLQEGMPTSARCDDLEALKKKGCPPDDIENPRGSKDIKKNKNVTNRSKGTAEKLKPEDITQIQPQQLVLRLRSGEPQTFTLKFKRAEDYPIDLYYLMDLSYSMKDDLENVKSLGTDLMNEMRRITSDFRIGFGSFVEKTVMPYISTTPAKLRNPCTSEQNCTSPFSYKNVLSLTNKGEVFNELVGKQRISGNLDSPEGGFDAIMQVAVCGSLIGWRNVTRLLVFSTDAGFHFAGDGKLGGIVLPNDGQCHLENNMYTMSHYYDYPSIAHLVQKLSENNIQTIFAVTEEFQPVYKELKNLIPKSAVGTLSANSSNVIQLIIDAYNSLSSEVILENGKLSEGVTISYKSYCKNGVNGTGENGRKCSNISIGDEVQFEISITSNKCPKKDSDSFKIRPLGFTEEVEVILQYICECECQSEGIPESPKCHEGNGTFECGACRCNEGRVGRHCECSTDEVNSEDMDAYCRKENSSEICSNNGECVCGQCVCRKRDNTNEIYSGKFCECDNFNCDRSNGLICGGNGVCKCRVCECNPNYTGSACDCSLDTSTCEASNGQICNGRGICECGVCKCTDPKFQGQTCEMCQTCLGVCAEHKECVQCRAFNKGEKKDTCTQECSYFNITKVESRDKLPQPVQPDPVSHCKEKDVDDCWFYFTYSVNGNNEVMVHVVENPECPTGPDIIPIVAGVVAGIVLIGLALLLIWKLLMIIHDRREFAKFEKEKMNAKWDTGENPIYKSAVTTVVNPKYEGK

The EC50 is the concentration needed to bring the measured effect to its halfway point.

Structures are written as SMILES.

The target in test [1] is α4β7 integrin (Homo sapiens, UniProt P13612+P26010). The test is described as follows: α4β7 Integrin Cell Capture Assay. Particulars: read-out: α4β7 EC50; capture of α4β7 integrin expressing RPM18866 cells on MadCAM-1 extracellular domain-coated plate; Table 2. The method, then:
The potency of inhibitors in preventing α4β7 integrin interaction with MadCAM-1 was measured by monitoring the capture of α4β7 integrin expressing cells on a recombinant MadCAM-1 extracellular domain-coated plate.
384-well plates (Corning 3702) were coated with MadCAM-1 extracellular domain by dispensing 20 μL of MAdCAM-1 at 1.0 μg/mL per well and incubating overnight at 4° C. The plates were then washed with PBS and blocked with 3% BSA for 2 hours before being washed again.
(§1) RPM18866 cells were spun down and re-suspended in assay medium (DMEM+0.5% FBS+0.5 mM MnCl2) at a density of 0.5×10^6 cells/mL. The cells were then dispensed (60 μL/well) to a 384-well plate (Greiner 781280) that was previously spotted with 60 nL of test compound per well. The plates were incubated at 37° C. for 1 hour. 50 μL of cells were transferred to the blocked, MadCAM-1-coated plates and incubated for 30 minutes at 37° C. 10 μL of 12% glutaraldehyde containing Hoechst 33342 (0.06 mg/mL) was added to the cells (2% glutaraldehyde and 0.01 mg/mL final concentrations). The plates were incubated for 90 minutes at room temperature. The plates were then washed 3 times with 70 μL of PBS per well and imaged on a Cellomics ArrayScan instrument. The cells that were bound to the plate were counted and plotted against the compound concentration to determine the EC50 of the test compounds.

Test [2] deals with α4β1 integrin (Homo sapiens, UniProt P05556+P13612). The test is described as follows: α4β1 Cell Capture Assay. Conditions: read-out: α4β1 EC50; capture of α4β1 expressing Jurkat cells on VCAM-1 extracellular domain-coated plate; Table 2. As for the experimental part: The potency of inhibitors in preventing α4β1 integrin interaction with VCAM-1 was measured by monitoring the capture of α4β1 expressing cells to a recombinant VCAM-1 extracellular domain-coated plate.
384-well plates (Corning 3702) were coated with VCAM-1 extracellular domain by dispensing 20 μL of VCAM-1 at 0.5 μg/ml per well and incubating overnight at 4° C. The plates were then washed with PBS and blocked with 3% BSA for 2 hours before being washed again.
as §1, with “Jurkat cells” for “RPM18866 cells”, “0.5×10^6 cells/ml.” for “0.5×10^6 cells/mL.”, “blocked, VCAM-1-coated” for “blocked, MadCAM-1-coated”, “10 μl” for “10 μL”, “0.01 mg/ml Hoechst 33342” for “0.01 mg/mL”

In the case of `COc1cc(C)n(C)c(=O)c1-c1ccc(C[C@H](NC(=O)c2c(C)cc(N3CCOC[C@@H]3C(F)(F)F)cc2F)C(=O)O)cc1C`, the results for the EC50 in test [1] and in test [2] were 0.3 nM and 8.3 nM, respectively.
